# Measured values from patent US20230072790A1, “COMPOUNDS AND FORMULATIONS FOR PROTECTIVE COATINGS” (Apeel Technology, Inc., priority 2021, published 2023).
# Conditions: versus no sucrose stearate
substance,measurement,setting,value
sucrose stearate,"increase in dispersion stability, determined by change in turbidity","sucrose stearate (Sisterna B.V.) added to 50 g/L Treatment D, blended at 80°, FIG. 14",2 to 3 fold
same,"increase in dispersion stability, determined by change in turbidity","sucrose stearate added to 50 g/L Treatment D, FIG. 13",2 to 3 fold

# Where two headings read alike, the source gives them in different places.
